Molecular target: M. mazei PylRS (wild-type) (Methanosarcina mazei, UniProt Q8PWY1)
Experiment: Aminoacylation assay of amino acids with wild-type PylRS (acid-urea PAGE)
Format: biochemical
Settings: 37 degrees Celsius 1 h; 0.5 M Lys; 100 mM Ac-Lys; 1 mM Boc-Lys; 1 mM Aloc-Lys; 10 mM Nic-Lys; 7 mM Nma-Lys; 3.5 mM Z-Lys; 1 mM pyrrolysine

By UniProt entry, the sequences of proteins in these tests, tags left out.
UniProt Q8PWY1, whole entry E444G: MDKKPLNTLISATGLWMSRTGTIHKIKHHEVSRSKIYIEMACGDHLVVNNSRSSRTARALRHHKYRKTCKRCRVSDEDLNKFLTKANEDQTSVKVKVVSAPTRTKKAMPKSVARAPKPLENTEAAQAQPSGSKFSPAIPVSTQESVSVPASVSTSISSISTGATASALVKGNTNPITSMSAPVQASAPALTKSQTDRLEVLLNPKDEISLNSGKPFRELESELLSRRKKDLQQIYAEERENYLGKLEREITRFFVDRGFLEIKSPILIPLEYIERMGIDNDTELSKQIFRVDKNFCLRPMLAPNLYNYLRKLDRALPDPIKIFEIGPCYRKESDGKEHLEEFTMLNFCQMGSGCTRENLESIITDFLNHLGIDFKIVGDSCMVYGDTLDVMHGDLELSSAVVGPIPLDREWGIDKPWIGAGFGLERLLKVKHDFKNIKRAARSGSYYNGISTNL

Compound | activation of amino acid / esterification of tRNA^Pyl by wild-type PylRS
NCCCC[C@H](N)C(=O)O | cannot activate
NE-nicotinoyl-L-lysine | esterified

Source: US9133449B2, “Mutant pyrrolysyl-tRNA synthetase, and method for production of protein having non-natural amino acid integrated therein by using the same” (priority 2007, dated 2015)
